Read-outs that look alike come from different tables or passages of the source.
Settings: Silver oxide 10 μmole

## silver oxide
Ammonia 10 μmole, TC 0 μmole
  Solubility: Not soluble
Ammonia 10 μmole, TC 10 μmole
  Solubility: >90% Soluble
Ammonia 10 μmole, TC 10 μmole, listed as silver oxide
  Solubility: more than 90%
Ammonia 10 μmole, TC 20 μmole
  Solubility: Soluble
Ammonia 10 μmole, TC 20 μmole, listed as silver oxide
  Solubility: completely solubilize
Ammonia 100 μmole, TC 0 μmole
  Solubility: Soluble

Source: patent US6843784B2, “Triclosan and silver compound containing medical devices” (priority 1999, dated 2005)
